Columns and labels:
[1] = Pre-processed stability in human plasma; assay type: in vitro ADME; conditions: 2.5 h
[2] = Processed sample stability in final extract; assay type: physicochemical; conditions: 4°C, autosampler, 25.1 h
[3] = Long-term stability of unprocessed plasma samples at −80°C; assay type: in vitro ADME; conditions: human plasma
[4] = Freeze-thaw stability of unprocessed plasma samples; assay type: in vitro ADME; conditions: human plasma, 3 freeze (-80°C)-thaw cycles, nominal 15 ng/mL
[5] = Reinjection stability in final extract; assay type: physicochemical; conditions: reinjected, 4°C, autosampler, 25.95 h
[6] = RT (20–25°C), yellow light, nominal 1500 ng/mL

Accuracy vs. nominal concentration ([1]; 37°C, dark, nominal 15 ng/mL): 103%
Accuracy vs fresh QCs ([1]; 37°C, dark, nominal 1500 ng/mL): 103%
Accuracy vs. nominal concentration ([1]; 37°C, dark, nominal 1500 ng/mL): 102%
Accuracy vs. nominal concentration ([1]; RT (20–25°C), yellow light, nominal 15 ng/mL): 105%
Accuracy vs fresh QCs [1, 6]: 105%
Accuracy vs. nominal concentration [1, 6]: 103%
Accuracy vs. nominal concentration ([2]; nominal 15 ng/mL): 106%
Accuracy vs. nominal concentration ([2]; nominal 1500 ng/mL): 101%
Accuracy vs. nominal concentration ([3]; 3 months, nominal 15 ng/mL): 97.8%
Accuracy vs. nominal concentration ([3]; 3 months, nominal 150 ng/mL): 99.3%
Accuracy vs. nominal concentration ([3]; 3 months, nominal 1500 ng/mL): 95.8%
Accuracy vs fresh QCs ([3]; 7 months, nominal 15 ng/mL): 112%
Accuracy vs. nominal concentration ([3]; 7 months, nominal 15 ng/mL): 93.8%
Accuracy vs. nominal concentration ([3]; 7 months, nominal 150 ng/mL): 104%
Accuracy vs. nominal concentration ([3]; 7 months, nominal 1500 ng/mL): 96.2%
Accuracy vs fresh QCs ([3]; 12 months, nominal 15 ng/mL): 112%
Accuracy vs. nominal concentration ([3]; 12 months, nominal 15 ng/mL): 102%
Accuracy vs. nominal concentration ([3]; 12 months, nominal 1500 ng/mL): 106%
Accuracy vs fresh QCs [4]: 103%
Accuracy vs. nominal concentration [4]: 101%
Accuracy vs. nominal concentration ([5]; nominal 150 ng/mL): 104%
Accuracy vs. nominal concentration ([5]; nominal 1500 ng/mL): 102%
Compound: CCN1CCN(Cc2ccc(Nc3ncc(F)c(-c4cc(F)c5nc(C)n(C(C)C)c5c4)n3)nc2)CC1 [Abemaciclib, abemaciclib]

— article PMC10175095 (Therapeutic drug monitoring, 2023)
